# Experiments:
# Sequences of proteins named here, by UniProt entry; tags and fusion partners are left off. A change or cut given only in a name is not applied to a line headed by its entry. Residues count along the entry.
# UniProt P11802: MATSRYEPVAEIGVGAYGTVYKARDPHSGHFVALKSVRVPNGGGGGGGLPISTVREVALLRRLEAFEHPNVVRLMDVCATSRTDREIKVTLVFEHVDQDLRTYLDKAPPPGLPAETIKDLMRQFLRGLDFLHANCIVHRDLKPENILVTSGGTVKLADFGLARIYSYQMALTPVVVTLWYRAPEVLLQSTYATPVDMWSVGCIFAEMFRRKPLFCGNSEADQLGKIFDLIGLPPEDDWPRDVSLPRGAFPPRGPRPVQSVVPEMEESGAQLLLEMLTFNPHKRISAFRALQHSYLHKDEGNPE
# UniProt Q9H2X6: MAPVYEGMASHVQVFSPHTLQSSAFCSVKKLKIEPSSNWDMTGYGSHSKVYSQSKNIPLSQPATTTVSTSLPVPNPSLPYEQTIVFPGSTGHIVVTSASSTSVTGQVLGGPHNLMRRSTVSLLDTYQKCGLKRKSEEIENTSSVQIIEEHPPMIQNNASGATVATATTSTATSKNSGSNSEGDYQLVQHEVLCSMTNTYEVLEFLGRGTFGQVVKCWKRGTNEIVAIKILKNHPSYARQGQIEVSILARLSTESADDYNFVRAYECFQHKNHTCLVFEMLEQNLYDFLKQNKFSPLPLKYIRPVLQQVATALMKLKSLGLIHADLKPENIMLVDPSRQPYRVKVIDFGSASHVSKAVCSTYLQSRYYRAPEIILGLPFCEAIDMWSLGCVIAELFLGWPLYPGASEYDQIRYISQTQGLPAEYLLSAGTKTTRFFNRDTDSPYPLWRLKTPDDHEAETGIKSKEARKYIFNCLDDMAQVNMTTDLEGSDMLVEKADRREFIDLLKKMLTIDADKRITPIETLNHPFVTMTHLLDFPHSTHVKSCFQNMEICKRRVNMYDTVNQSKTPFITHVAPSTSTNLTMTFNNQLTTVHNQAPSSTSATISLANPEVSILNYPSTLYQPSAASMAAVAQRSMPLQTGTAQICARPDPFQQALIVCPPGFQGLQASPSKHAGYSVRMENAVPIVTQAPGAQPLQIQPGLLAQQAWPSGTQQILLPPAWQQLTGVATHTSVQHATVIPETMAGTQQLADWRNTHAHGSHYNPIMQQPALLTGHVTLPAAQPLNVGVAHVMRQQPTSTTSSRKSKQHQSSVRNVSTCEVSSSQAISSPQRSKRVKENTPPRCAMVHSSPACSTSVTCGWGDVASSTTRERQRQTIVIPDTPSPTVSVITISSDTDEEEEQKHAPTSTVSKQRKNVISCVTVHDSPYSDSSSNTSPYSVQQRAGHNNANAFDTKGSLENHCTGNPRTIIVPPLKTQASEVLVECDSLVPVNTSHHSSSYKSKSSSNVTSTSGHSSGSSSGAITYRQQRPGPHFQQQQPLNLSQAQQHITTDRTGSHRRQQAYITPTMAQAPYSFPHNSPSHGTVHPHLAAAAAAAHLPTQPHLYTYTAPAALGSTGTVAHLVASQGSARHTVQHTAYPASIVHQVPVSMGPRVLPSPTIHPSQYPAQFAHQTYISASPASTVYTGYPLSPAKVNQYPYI
# UniProt Q8IWQ3: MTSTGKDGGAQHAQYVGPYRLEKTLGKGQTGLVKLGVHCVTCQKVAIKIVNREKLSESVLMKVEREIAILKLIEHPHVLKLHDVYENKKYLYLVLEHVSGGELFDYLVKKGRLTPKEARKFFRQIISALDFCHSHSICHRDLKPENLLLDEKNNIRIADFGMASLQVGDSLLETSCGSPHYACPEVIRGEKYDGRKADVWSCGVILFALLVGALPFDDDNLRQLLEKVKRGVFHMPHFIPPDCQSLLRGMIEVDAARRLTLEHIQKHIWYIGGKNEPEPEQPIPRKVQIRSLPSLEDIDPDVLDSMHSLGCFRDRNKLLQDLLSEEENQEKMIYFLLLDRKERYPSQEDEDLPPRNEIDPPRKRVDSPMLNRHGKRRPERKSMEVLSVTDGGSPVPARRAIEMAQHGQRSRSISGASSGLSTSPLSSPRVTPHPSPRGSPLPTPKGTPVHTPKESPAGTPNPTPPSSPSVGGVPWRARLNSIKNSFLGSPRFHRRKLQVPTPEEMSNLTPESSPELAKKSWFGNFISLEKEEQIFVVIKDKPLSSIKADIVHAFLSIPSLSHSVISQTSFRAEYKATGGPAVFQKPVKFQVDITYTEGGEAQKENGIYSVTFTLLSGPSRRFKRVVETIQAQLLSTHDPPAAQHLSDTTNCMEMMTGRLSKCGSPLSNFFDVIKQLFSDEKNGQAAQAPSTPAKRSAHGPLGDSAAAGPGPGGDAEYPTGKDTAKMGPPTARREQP
# UniProt Q9P2K8, 590-1001 S808G limits assumed: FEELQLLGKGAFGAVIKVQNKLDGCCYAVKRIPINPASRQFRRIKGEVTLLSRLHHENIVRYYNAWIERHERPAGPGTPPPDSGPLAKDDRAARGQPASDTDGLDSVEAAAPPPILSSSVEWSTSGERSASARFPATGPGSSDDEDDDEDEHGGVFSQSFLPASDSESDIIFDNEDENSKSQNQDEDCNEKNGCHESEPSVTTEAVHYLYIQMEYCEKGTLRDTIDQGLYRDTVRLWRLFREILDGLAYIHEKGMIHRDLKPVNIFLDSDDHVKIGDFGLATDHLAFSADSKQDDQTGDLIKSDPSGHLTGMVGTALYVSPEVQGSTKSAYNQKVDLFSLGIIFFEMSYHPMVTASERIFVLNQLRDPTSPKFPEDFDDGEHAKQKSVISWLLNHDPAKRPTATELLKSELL
# UniProt P21127: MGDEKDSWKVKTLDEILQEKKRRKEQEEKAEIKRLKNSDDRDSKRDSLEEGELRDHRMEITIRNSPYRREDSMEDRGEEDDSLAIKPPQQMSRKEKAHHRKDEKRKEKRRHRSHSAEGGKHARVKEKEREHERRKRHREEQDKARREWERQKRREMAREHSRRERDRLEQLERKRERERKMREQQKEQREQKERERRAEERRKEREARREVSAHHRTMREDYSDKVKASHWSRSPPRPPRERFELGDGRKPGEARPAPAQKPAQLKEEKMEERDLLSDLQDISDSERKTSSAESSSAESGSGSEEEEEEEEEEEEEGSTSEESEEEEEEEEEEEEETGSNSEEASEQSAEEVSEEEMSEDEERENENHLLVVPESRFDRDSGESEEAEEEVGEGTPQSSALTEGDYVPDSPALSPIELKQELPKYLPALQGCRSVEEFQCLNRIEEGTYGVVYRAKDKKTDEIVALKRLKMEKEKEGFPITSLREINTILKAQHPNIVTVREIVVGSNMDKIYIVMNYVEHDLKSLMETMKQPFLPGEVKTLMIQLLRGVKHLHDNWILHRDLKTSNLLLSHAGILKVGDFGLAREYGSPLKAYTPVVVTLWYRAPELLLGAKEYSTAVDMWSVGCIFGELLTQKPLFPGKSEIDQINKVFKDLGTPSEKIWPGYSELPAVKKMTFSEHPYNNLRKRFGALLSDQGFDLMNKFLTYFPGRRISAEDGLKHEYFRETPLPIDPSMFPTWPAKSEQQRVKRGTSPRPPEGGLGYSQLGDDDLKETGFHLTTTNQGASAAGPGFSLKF
# UniProt Q9Y2H1: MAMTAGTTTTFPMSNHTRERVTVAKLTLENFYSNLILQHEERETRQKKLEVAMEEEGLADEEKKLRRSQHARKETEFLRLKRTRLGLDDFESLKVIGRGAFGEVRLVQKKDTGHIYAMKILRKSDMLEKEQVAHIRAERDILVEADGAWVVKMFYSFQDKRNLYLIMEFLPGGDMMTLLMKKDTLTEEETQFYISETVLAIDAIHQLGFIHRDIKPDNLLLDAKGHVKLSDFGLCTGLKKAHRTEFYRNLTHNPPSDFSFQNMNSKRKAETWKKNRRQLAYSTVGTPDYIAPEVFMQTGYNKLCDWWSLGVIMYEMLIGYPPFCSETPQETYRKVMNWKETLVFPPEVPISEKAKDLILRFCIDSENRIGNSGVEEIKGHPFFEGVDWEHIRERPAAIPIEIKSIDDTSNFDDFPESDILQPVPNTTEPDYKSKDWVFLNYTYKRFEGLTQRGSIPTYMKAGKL
# UniProt Q13163: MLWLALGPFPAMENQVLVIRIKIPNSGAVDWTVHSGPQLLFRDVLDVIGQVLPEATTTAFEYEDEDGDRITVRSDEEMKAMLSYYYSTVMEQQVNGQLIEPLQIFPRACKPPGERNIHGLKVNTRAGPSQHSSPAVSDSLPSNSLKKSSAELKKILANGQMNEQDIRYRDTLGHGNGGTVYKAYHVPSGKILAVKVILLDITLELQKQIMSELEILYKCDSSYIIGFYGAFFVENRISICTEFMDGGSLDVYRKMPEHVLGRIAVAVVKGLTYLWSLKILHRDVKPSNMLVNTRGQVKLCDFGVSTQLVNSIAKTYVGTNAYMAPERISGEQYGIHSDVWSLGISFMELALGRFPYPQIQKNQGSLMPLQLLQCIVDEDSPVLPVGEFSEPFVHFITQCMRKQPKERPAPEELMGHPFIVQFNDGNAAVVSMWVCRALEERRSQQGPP
# UniProt O96017, whole entry: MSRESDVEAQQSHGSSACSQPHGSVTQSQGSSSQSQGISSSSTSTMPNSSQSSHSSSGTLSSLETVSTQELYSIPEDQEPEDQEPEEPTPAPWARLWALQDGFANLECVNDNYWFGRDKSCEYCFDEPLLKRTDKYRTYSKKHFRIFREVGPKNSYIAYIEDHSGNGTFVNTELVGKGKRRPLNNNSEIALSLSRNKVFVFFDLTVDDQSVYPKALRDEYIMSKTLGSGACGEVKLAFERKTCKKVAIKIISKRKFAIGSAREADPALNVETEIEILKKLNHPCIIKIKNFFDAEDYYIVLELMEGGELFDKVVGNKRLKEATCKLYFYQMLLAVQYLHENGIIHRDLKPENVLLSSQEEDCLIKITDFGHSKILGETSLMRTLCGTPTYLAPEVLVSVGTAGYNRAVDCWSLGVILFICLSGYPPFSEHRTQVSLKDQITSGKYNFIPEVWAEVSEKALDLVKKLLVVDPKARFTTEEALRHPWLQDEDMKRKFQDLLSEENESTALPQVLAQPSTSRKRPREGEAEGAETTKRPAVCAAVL
# UniProt P29320, 21-983: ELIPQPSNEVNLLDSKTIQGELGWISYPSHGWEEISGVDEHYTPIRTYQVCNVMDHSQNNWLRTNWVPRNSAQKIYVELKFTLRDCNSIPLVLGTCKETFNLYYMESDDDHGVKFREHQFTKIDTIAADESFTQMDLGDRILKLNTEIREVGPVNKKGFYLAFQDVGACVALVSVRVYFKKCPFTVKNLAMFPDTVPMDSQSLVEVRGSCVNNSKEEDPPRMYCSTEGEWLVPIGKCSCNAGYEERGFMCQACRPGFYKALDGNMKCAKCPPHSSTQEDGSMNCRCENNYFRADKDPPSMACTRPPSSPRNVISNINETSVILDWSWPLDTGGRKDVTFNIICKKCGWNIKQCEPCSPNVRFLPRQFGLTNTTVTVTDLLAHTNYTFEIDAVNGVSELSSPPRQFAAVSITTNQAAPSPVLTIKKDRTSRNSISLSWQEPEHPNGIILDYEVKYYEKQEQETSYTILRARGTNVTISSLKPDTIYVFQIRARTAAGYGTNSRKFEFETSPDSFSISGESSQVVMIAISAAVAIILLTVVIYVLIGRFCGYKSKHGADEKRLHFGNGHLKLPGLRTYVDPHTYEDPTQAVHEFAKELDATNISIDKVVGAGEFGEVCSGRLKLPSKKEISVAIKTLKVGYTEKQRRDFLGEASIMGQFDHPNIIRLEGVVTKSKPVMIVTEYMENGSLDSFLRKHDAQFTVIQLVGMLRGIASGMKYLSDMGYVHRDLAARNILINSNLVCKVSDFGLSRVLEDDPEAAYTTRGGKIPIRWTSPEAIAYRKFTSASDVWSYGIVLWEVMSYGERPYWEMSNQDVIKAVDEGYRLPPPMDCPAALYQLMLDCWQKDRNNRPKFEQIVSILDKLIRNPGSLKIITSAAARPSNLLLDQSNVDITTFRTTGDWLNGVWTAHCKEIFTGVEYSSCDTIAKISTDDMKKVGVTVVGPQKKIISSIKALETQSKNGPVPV
# UniProt P54646: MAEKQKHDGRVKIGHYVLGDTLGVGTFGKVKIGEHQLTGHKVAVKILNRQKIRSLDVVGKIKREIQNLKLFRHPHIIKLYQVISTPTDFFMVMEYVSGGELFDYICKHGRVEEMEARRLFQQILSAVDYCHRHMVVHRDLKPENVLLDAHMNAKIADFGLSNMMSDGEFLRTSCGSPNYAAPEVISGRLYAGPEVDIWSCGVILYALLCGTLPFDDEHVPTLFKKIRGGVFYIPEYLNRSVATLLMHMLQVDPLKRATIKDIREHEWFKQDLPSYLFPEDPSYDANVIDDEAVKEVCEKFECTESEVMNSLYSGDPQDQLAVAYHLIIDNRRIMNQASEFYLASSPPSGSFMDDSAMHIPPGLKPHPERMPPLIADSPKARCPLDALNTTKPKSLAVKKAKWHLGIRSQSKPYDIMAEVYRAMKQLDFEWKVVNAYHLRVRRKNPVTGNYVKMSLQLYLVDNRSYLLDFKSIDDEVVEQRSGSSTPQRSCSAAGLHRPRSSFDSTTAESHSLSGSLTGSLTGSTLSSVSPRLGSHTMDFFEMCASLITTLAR
# ACVR2B = ACVR2B (Homo sapiens, UniProt Q13705); test: biochemical; settings: read-out: Percent Control
# CAMK4 = CAMK4 (Homo sapiens, UniProt Q16566); test: biochemical; settings: read-out: Percent Control
# MTOR = MTOR (Homo sapiens, UniProt P42345); test: biochemical; settings: read-out: Percent Control
# EGFR(L747-T751del,Sins) = EGFR(L747-T751del,Sins) (Homo sapiens, UniProt P00533, DEL747-750/T751S); test: biochemical; settings: read-out: Percent Control
# [1] = target: RSK3(Kin.Dom.2-C-terminal) (Homo sapiens, UniProt Q15349); test: biochemical; settings: read-out: Percent Control
# CSNK2A1 = CSNK2A1 (Homo sapiens, UniProt P68400); test: biochemical; settings: read-out: Percent Control
# FLT3(D835V) = FLT3(D835V) (Homo sapiens, UniProt P36888, D835V); test: biochemical; settings: read-out: Percent Control
# CDK4-cyclinD3 = CDK4-cyclinD3 (Homo sapiens, UniProt P11802); test: biochemical; settings: read-out: Percent Control
# TNK1 = TNK1 (Homo sapiens, UniProt Q13470); test: biochemical; settings: read-out: Percent Control
# NEK11 = NEK11 (Homo sapiens, UniProt Q8NG66); test: biochemical; settings: read-out: Percent Control
# WNK1 = WNK1 (Homo sapiens, UniProt Q9H4A3); test: biochemical; settings: read-out: Percent Control
# TSSK1B = TSSK1B (Homo sapiens, UniProt Q9BXA7); test: biochemical; settings: read-out: Percent Control
# HIPK2 = HIPK2 (Homo sapiens, UniProt Q9H2X6); test: biochemical; settings: read-out: Percent Control
# IKK-epsilon = IKK-epsilon (Homo sapiens, UniProt Q14164); test: biochemical; settings: read-out: Percent Control
# ROCK1 = ROCK1 (Homo sapiens, UniProt Q13464); test: biochemical; settings: read-out: Percent Control
# BRSK2 = BRSK2 (Homo sapiens, UniProt Q8IWQ3); test: biochemical; settings: read-out: Percent Control
# DAPK1 = DAPK1 (Homo sapiens, UniProt P53355); test: biochemical; settings: read-out: Percent Control
# MARK3 = MARK3 (Homo sapiens, UniProt P27448); test: biochemical; settings: read-out: Percent Control
# GCN2(Kin.Dom.2,S808G) = GCN2(Kin.Dom.2,S808G) (Homo sapiens, UniProt Q9P2K8, S808G); test: biochemical; settings: read-out: Percent Control
# CDC2L1 = CDC2L1 (Homo sapiens, UniProt P21127); test: biochemical; settings: read-out: Percent Control
# NDR2 = NDR2 (Homo sapiens, UniProt Q9Y2H1); test: biochemical; settings: read-out: Percent Control
# MEK4 = MEK4 (Homo sapiens, UniProt P45985); test: biochemical; settings: read-out: Percent Control
# BTK = BTK (Homo sapiens, UniProt Q06187); test: biochemical; settings: read-out: Percent Control
# DLK = DLK (Homo sapiens, UniProt Q12852); test: biochemical; settings: read-out: Percent Control
# EGFR(E746-A750del) = EGFR(E746-A750del) (Homo sapiens, UniProt P00533, DEL746-750); test: biochemical; settings: read-out: Percent Control
# ZAK = ZAK (Homo sapiens, UniProt Q9NYL2); test: biochemical; settings: read-out: Percent Control
# PLK3 = PLK3 (Homo sapiens, UniProt Q9H4B4); test: biochemical; settings: read-out: Percent Control
# MEK5 = MEK5 (Homo sapiens, UniProt Q13163); test: biochemical; settings: read-out: Percent Control
# p38-delta = p38-delta (Homo sapiens, UniProt O15264); test: biochemical; settings: read-out: Percent Control
# PIK3CA(E542K) = PIK3CA(E542K) (Homo sapiens, UniProt P42336, E542K); test: biochemical; settings: read-out: Percent Control
# CHEK2 = CHEK2 (Homo sapiens, UniProt O96017); test: biochemical; settings: read-out: Percent Control
# ERK5 = ERK5 (Homo sapiens, UniProt Q13164); test: biochemical; settings: read-out: Percent Control
# BRSK1 = BRSK1 (Homo sapiens, UniProt Q8TDC3); test: biochemical; settings: read-out: Percent Control
# BMPR1B = BMPR1B (Homo sapiens, UniProt O00238); test: biochemical; settings: read-out: Percent Control
# [2] = target: RSK4(Kin.Dom.1-N-terminal) (Homo sapiens, UniProt Q9UK32); test: biochemical; settings: read-out: Percent Control
# [3] = target: RSK2(Kin.Dom.1-N-terminal) (Homo sapiens, UniProt P51812); test: biochemical; settings: read-out: Percent Control
# EPHA3 = EPHA3 (Homo sapiens, UniProt P29320); test: biochemical; settings: read-out: Percent Control
# RET(V804L) = RET(V804L) (Homo sapiens, UniProt P07949, V804L); test: biochemical; settings: read-out: Percent Control
# AMPK-alpha2 = AMPK-alpha2 (Homo sapiens, UniProt P54646); test: biochemical; settings: read-out: Percent Control
# CDK9 = CDK9 (Homo sapiens, UniProt P50750); test: biochemical; settings: read-out: Percent Control
compound,measurement,setting,value
"COc1cc2c(Nc3ccc(Cl)c(OC)n3)c(C#N)cnc2cc1OCCON1CCN(C)CC1 [16a, 4-((5-Chloro-6-methoxypyridin-2-yl)amino)-6-methoxy-7-(2-((4-methylpiperazin-1-yl)oxy)ethoxy)quinoline-3-carbonitrile]",remaining activity at 1 µM,ACVR2B,100%
same,remaining activity at 1 µM,CAMK4,100%
same,remaining activity at 1 µM,MTOR,80%
same,remaining activity at 1 µM,"EGFR(L747-T751del,Sins)",4.5%
same,remaining activity at 1 µM,[1],63%
same,Percent Control,"FLT3(ITD,D835V)",2.6
same,remaining activity at 1 µM,CSNK2A1,100%
same,remaining activity at 1 µM,FLT3(D835V),0%
same,remaining activity at 1 µM,CDK4-cyclinD3,99%
same,remaining activity at 1 µM,TNK1,74%
same,remaining activity at 1 µM,NEK11,61%
same,remaining activity at 1 µM,WNK1,60%
same,remaining activity at 1 µM,TSSK1B,25%
same,remaining activity at 1 µM,HIPK2,64%
same,remaining activity at 1 µM,IKK-epsilon,38%
same,remaining activity at 1 µM,ROCK1,31%
same,remaining activity at 1 µM,BRSK2,87%
same,remaining activity at 1 µM,DAPK1,50%
same,remaining activity at 1 µM,MARK3,95%
same,remaining activity at 1 µM,"GCN2(Kin.Dom.2,S808G)",1.8%
same,remaining activity at 1 µM,CDC2L1,100%
same,remaining activity at 1 µM,NDR2,85%
same,remaining activity at 1 µM,MEK4,100%
same,remaining activity at 1 µM,BTK,0.4%
same,remaining activity at 1 µM,DLK,11%
same,remaining activity at 1 µM,EGFR(E746-A750del),0%
same,remaining activity at 1 µM,ZAK,1.6%
same,remaining activity at 1 µM,PLK3,90%
same,remaining activity at 1 µM,MEK5,0.1%
same,remaining activity at 1 µM,p38-delta,100%
same,remaining activity at 1 µM,PIK3CA(E542K),100%
same,remaining activity at 1 µM,CHEK2,0.75%
same,remaining activity at 1 µM,ERK5,100%
same,remaining activity at 1 µM,BRSK1,100%
same,remaining activity at 1 µM,BMPR1B,100%
same,remaining activity at 1 µM,[2],46%
same,remaining activity at 1 µM,[3],64%
same,remaining activity at 1 µM,EPHA3,7.3%
same,remaining activity at 1 µM,RET(V804L),70%
same,remaining activity at 1 µM,AMPK-alpha2,60%
same,remaining activity at 1 µM,CDK9,100%
same,Percent Control,"FLT3(ITD,F691L)",18

# Source: PMC11472320, “Computationally Driven Discovery of a BCR-ABL1 Kinase Inhibitor with Activity in Multidrug-Resistant Chronic Myeloid Leukemia” (Journal of Medicinal Chemistry, 2024)
